# Measured affinities in a library of Ab-95 light chain variants

Target peptide (SARS-CoV-2 spike, HR2 region): PDVDLGDISGINAS

Ab-95 is the parent antibody, in scFv form: VH, then three GGGGS repeats, then VL. The heavy chain is unchanged in all variants.
VH: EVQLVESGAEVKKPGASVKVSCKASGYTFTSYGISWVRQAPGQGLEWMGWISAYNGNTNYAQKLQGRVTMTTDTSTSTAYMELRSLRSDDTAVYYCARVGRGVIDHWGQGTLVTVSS
VL: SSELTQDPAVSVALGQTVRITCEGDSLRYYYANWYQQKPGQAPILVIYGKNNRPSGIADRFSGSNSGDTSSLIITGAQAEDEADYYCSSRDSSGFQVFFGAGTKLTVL

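The starting antibody came from a phage panning campaign against this peptide. Variants in AAYL52 differ from the parent at up to three CDR positions; double and triple changes were sampled at random. The assay is AlphaSeq: two haploid yeast populations carry antibody and antigen on their surface. The frequency of each diploid, read from paired DNA barcodes, reflects how well the two displayed proteins bind. Each replicate has its own calibration line, from reference interactions of the BCL2 family. The assay was run in three technical replicates.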

Changes read parent residue, position, new residue, counted from the first residue of the VL shown. Numbers give log10(Kd / nM), so 0 is 1 nM and 3 is 1 µM. Smaller is tighter. "n.d." marks a missing value. The strain was present, yet no cells mated with the target were sequenced in that replicate, which points to weak or no binding.

changes,"replicates, log10 nM",control signals
G24Q/S92A,3.83 4.02 5.02,6/9 (4.47)
N52T/R53Y/S93W,n.d. n.d. n.d.,2/9 (3.98)
R28Y/P54E/S93I,3.22 3.39 n.d.,2/9 (4.39)
Y30C/Y31N/P54S,2.12 2.00 1.38,5/9 (4.21)
Y31C/N33C/V97G,4.64 5.32 n.d.,5/9 (3.99)
R28F/S88A/G94R,3.56 2.77 n.d.,3/9 (3.40)
D25T/S93H/F95R,2.51 2.96 2.94,3/9 (3.30)
R28E/V97N,3.91 n.d. n.d.,3/9 (3.64)
E23P/R53D/S93Q,n.d. n.d. n.d.,2/9 (3.90)
L27P,n.d. 4.26 4.63,3/9 (4.24)
N52L/S93G/V97R,3.79 3.72 3.36,4/9 (4.02)
S26G/N51H/F98Q,n.d. 5.35 2.81,0/9
G24T/Y30V/K50Y,5.10 5.68 n.d.,5/9 (3.80)
Y31D/S89W,2.19 2.01 1.75,5/9 (4.23)
R28M/K50M/R90I,5.34 3.22 4.13,1/9 (3.48)
G24W/S89H/V97S,3.66 n.d. n.d.,1/9 (3.69)
G24Q/D25Q/A32Y,4.79 n.d. n.d.,2/9 (3.97)
P54S/D91I/S92D,3.48 n.d. 4.19,1/9 (3.73)
N33L/G49H/R53Y,n.d. n.d. n.d.,2/9 (3.38)
D25L/S26F/Y30N,1.59 1.45 1.42,0/9
N33R/R53E/S55Y,4.44 n.d. n.d.,0/9
N51W/Q96A/V97I,5.57 4.95 2.62,4/9 (4.12)
Q96S/V97F,3.16 2.80 1.94,5/9 (3.66)
N33S/F95D/V97I,4.69 n.d. n.d.,1/9 (3.56)
Y30P/Y31H/F98C,2.60 2.81 3.25,1/9 (2.83)
S26V/A32G/F95L,4.31 n.d. n.d.,2/9 (3.85)
D25V/S93G,2.77 2.77 2.23,2/9 (3.88)
D25N/S26K/G49V,n.d. 4.55 n.d.,0/9
S26V/Y29K/P54R,3.62 2.92 n.d.,4/9 (3.39)
N51C/P54S/F95C,3.93 3.96 4.01,5/9 (3.95)
Y29K/Y31E/A32V,1.83 1.77 1.58,2/9 (4.73)
R90E/S92H/F95D,3.82 3.62 4.31,3/9 (4.56)
D25N/Q96T,2.19 2.47 1.82,6/9 (3.92)
N51G/S88V/F98N,n.d. 3.42 3.86,2/9 (3.45)
Y29Q/F95D/Q96S,3.42 2.80 3.00,4/9 (3.89)
R53S/G94D,3.76 4.29 4.19,1/9 (3.02)
E23T/K50C/R53I,5.00 2.98 n.d.,1/9 (3.56)
G24E/S92R/S93N,3.94 n.d. n.d.,3/9 (3.98)
Y31T/S55Q/R90W,4.74 n.d. n.d.,0/9
Y31W/S89L/S93N,n.d. n.d. 4.13,1/9 (3.94)
E23L/R28K/S55T,4.31 2.48 n.d.,0/9
Y31T/R90N/V97S,n.d. 4.58 n.d.,3/9 (3.57)
D25K/S89F/G94K,3.06 2.68 2.70,3/9 (3.46)
E23L/S88H/S92K,1.44 1.28 0.98,3/9 (3.88)
N52A/S92P/F98N,3.82 2.03 2.46,1/9 (3.79)
D91A/F95M/V97K,n.d. n.d. 3.71,4/9 (3.73)

The first 4 entries again:

| changes | replicates, log10 nM | control signals |
|---|---|---|
| G24Q/S92A | 3.83 4.02 5.02 | 6/9 (4.47) |
| N52T/R53Y/S93W | n.d. n.d. n.d. | 2/9 (3.98) |
| R28Y/P54E/S93I | 3.22 3.39 n.d. | 2/9 (4.39) |
| Y30C/Y31N/P54S | 2.12 2.00 1.38 | 5/9 (4.21) |

Parent in this assay: reference entry 2.31, copy in this library 2.25. Three control strains display no target. For library AAYL52, 28% of the pairings with them gave a signal, with a median of 3.91 and one signal in twenty below 2.90, so weak values seen in few replicates may be background. Also given: how often the same scFv was detected with the empty control strains, with their mean in brackets.

Source: Engelhart et al. 2022 (doi:10.1038/s41597-022-01779-4), MIT Lincoln Laboratory and A-Alpha Bio; data file from the FLAb repository.